The target of the assay is T1, human NE (Homo sapiens, UniProt P08246).
T1 construct: purchased Innovative Research (Novi, MI)
T1 sequence (P08246 30-267): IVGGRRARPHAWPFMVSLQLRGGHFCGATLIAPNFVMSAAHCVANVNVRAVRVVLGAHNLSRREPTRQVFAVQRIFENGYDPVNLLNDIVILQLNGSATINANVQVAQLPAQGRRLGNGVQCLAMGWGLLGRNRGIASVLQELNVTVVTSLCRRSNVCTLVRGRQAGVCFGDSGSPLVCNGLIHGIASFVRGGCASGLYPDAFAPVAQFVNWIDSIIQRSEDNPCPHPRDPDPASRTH
The assay can be described thus: Inhibition of NE680 cleavage by human NE. The format is biochemical.

Where a name gives a salt, the structure may show the parent alone.

As for `CC(C)(C)C(=O)Oc1ccc(S(=O)(=O)Nc2ccccc2C(=O)NCC(=O)O)cc1` [sivelestat, N-{2-[({4-[(2,2-dimethylpropanoyl)oxy]phenyl}sulfonyl)amino]benzoyl} glycine sodium salt, reference compound], for the setting “NE680 0.5 μM as substrate, 30 min preincubation of enzyme with inhibitor, room temperature, read-out: IC50 on NE680 activation by human NE”, the IC50 amounted to 30 nM. Under “ratio of IC50 human PR3 to NE”, the “IC50 of NE lower than that of human PR3” value is 23 times.

In general, IC50 refers to the point on the concentration scale where inhibition reaches its midpoint.

(Values after publication PMC3175392, “Noninvasive In Vivo Quantification of Neutrophil Elastase Activity in Acute Experimental Mouse Lung Injury” (International Journal of Molecular Imaging, 2011).)
